{
  "sequences": {"note": "The chains behind the UniProt entries cited, without tags or fusion partners.", "UniProt P33533, whole entry, looked up": "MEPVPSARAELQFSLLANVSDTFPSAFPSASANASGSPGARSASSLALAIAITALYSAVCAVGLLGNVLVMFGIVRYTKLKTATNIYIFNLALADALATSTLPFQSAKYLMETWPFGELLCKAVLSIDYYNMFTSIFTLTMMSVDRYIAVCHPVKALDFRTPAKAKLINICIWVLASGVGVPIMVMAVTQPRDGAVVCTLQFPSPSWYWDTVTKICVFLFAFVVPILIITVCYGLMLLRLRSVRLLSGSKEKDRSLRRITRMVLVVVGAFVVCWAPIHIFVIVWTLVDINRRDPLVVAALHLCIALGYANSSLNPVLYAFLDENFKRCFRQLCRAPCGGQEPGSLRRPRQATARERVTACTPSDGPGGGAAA", "UniProt P33535, whole entry, looked up": "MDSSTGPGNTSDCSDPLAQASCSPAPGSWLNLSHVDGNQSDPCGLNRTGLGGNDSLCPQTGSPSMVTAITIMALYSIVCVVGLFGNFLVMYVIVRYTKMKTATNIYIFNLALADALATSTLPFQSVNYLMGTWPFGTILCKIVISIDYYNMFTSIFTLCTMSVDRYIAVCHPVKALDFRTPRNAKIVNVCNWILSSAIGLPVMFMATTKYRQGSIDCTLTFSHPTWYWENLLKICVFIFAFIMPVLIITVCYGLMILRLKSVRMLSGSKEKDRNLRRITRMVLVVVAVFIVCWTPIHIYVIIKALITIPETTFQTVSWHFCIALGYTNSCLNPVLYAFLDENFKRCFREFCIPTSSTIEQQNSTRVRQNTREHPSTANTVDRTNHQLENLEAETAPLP"},
  "source": "ChEMBL document CHEMBL1148353",
  "about": "“Development of potent bifunctional endomorphin-2 analogues with mixed mu-/delta-opioid agonist and delta-opioid antagonist properties” (J Med Chem, 2004)",
  "data": [
    {"biological_target": "Opioid receptors; mu & delta (Rattus norvegicus) (UniProt P33533+P33535)", "assay": "Ratio of binding affinity against rat brain delta opioid receptor to that of mu opioid receptor", "values": [
      {"smiles": "Cc1cc(O)cc(C)c1C[C@H](N)C(=O)N1CCC[C@H]1C(=O)N[C@@H](Cc1ccccc1)C(=O)Nc1cccc2cccnc12", "Ratio": 68},
      {"smiles": "Cc1cc(O)cc(C)c1C[C@H](N)C(=O)N1CCC[C@H]1C(=O)N[C@@H](Cc1ccccc1)C(=O)Nc1cccc2cnccc12", "Ratio": 517},
      {"smiles": "Cc1cc(O)cc(C)c1C[C@H](N)C(=O)N1CCC[C@H]1C(=O)N[C@@H](Cc1ccccc1)C(=O)Nc1ccccc1", "Ratio": 19},
      {"smiles": "Cc1cc(O)cc(C)c1C[C@H](N)C(=O)N1CCC[C@H]1C(=O)N[C@@H](Cc1ccccc1)C(=O)Nc1cccnc1", "Ratio": 1730},
      {"smiles": "Cc1cc(O)cc(C)c1C[C@H](N)C(=O)N1CCC[C@H]1C(=O)N[C@@H](Cc1ccccc1)C(=O)Nc1ccncc1", "Ratio": 424},
      {"smiles": "Cc1cc(O)cc(C)c1C[C@H](N)C(=O)N1CCC[C@H]1C(=O)N[C@@H](Cc1ccccc1)C(=O)Nc1ccc2ncccc2c1", "Ratio": 212},
      {"smiles": "Cc1cc(O)cc(C)c1C[C@H](N)C(=O)N1CCC[C@H]1C(=O)N[C@@H](Cc1ccccc1)C(=O)Nc1ccccn1", "Ratio": 1190},
      {"smiles": "Cc1cc(O)cc(C)c1C[C@H](N)C(=O)N1CCC[C@H]1C(=O)N[C@@H](Cc1ccccc1)C(=O)NCc1ccccc1", "Ratio": 27}
    ]}
  ]
}
